Measurements from patent publication US6566337B1, “Compounds with growth hormone releasing properties” (Novo Nordisk A/S, priority 1998, dated 2003).

Legend:
carboxypeptidase Y and B = assay: Metabolic stability in carboxypeptidase mix (ESMS, SIM signal); details: carboxypeptidase Y and B in 50 mM ammoniumacetate pH 4.5, 37° C., 24 h, decrease in SIM signal
[1] = test system: trypsin, chymotrypsin and elastase; assay: Metabolic stability in pancreatic enzyme mix (ESMS, SIM signal); details: chymotrypsin and elastase in 100 mM ammoniumbicarbonate pH 8.0, 37° C., 24 h, decrease in SIM signal

CSCC[C@H](NC(=O)[C@H](CC(C)C)NC(=O)[C@H](Cc1c[nH]c2ccccc12)NC(=O)[C@H](CCC(N)=O)NC(=O)[C@@H](NC(=O)[C@H](Cc1ccccc1)NC(=O)[C@H](CC(=O)O)NC(=O)[C@H](CCC(N)=O)NC(=O)[C@H](C)NC(=O)[C@H](CCCN=C(N)N)NC(=O)[C@H](CCCN=C(N)N)NC(=O)[C@H](CO)NC(=O)[C@H](CC(=O)O)NC(=O)[C@H](CC(C)C)NC(=O)[C@H](Cc1ccc(O)cc1)NC(=O)[C@H](CCCCN)NC(=O)[C@H](CO)NC(=O)[C@H](Cc1ccc(O)cc1)NC(=O)[C@H](CC(=O)O)NC(=O)[C@H](CO)NC(=O)[C@@H](NC(=O)[C@H](Cc1ccccc1)NC(=O)[C@@H](NC(=O)CNC(=O)[C@H](CCC(N)=O)NC(=O)[C@H](CO)NC(=O)[C@@H](N)Cc1c[nH]cn1)[C@@H](C)O)[C@@H](C)O)C(C)C)C(=O)N[C@@H](CC(N)=O)C(=O)N[C@H](C(=O)O)[C@@H](C)O [Glucagon]
Carboxy-peptidase mix (stability) (carboxypeptidase Y and B): − (Unstable (more than 20% decrease in SIM signal after 24 h in degradation solution)) | Pan. enzyme mix (stability) [1]: − (Unstable (more than 20% decrease in SIM signal after 24 h in degradation solution))
